Experimental data as given in US12139488B2, “Pyrido[3,2-d]pyrimidine compounds uses thereof for treating a proliferative disease” (Universite de Montreal, priority 2021, dated 2024).

How the values were obtained:
[1] = tested on: pERK in NCI-H358 cells (KRAS-G12C); experiment: Phospho-ERK inhibition (AlphaLISA), NCI-H358; conditions: for NCI-H358 pERK % Ymin: NCI-H358, value in parentheses; for IC50: read-out: NCI-H358 pERK IC50, NCI-H358
Method: (§1) All cancer cell lines (A375, A101D, A2058, RKO, HT29 SK-MEL 30, IPC298, HepG2, HCT-116, Lovo, SWV620, SW480, NCI-H358, NCI-H2122, Calu-6, NCIH2087, NCIH1755, NCIH1666 and Mewo) were obtained from ATCC and cultured in RPMI-1640 medium (Gibco) supplemented with 5% heat inactivated fetal bovine serum (FBS, Wisent) at 37° C. under 5% CO2. Cells were maintained in T175 flasks (Greiner). They were passaged by removing the culture medium, washing once in 10 mL of room temperature Phosphate Buffered Saline (PBS; Wisent) and incubating at 37° C. with 2 mL of 0.05% Trypsin (Thermo-Fisher). Trypsin was then inactivated by adding complete growth medium and the cells were then replated in a T175 culture dish at the appropriate dilution. All cell lines were routinely tested for mycoplasma contamination. Tissue type and mutational status of each cell line can be found in Table B.
(§2) AlphaLISA® SureFire® Ultra™ p-ERK 1/2 (Thr202/Tyr204) analysis was conducted on cells plated in 100 μL of complete RPMI-1640 growth medium in 96-well flat-bottomed transparent dishes (Costar) at a density indicated in Table C. Cells were maintained overnight at 37° C. under 5% CO2 before treatment with compounds' dilution series for one hour. The cell density in cells/cm^2 corresponds to cell number divided by the area of one well of a 96-well plate ([…]).
(§3) In a dilution series 100 μL/well of test substance dilution prepared in complete RPMI-1640 growth media was added to the cells. The dilution series is selected so that ten concentrations cover a range from 10 μM to 0.33 nM. If necessary the initial concentration of 10 μM is increased to 100 μM or lowered to 1 μM (as in the case of A375 and H1666 cells, which are generally more sensitive to the compounds) and further dilution is carried out accordingly. The final concentration of DMSO in the assay is set at 0.5%.
(§4) After treatment, media was removed and cells were lysed in 50 μL of 1× AlphaScreen Ultra Lysis Buffer (Perkin Elmer). The AlphaLISA® SureFire® Ultra™ p-ERK 1/2 (Thr202/Tyr2O4) (PerkinElmer) reactions were performed with 5 μL of cell lysate according to the manufacturer's specifications in 384-well proxyplates (Perkin Elmer) followed by overnight incubation of the reactions at room temperature in a humidified chamber. After completion of the reactions, the signals were recorded on an EnVision plate reader (Perkin Elmer) using built in AlphaLISA® settings.
(§5) The effect of each compound dilution on the pERK signal was expressed in % inhibition and calculated as follows. An internal 100% inhibition control (1 M trametinib, cat #HY-10999; MedChem Express; CAS #871700-17-3) was included in each plate and used as a measure of pERK background. First, the value obtained for trametinib was subtracted from each data point. The average of DMSO (vehicle) controls (set as 0% inhibition) was established and used to calculate % inhibition: % inhibition=100*(1-((pERK signalcompound)/(pERK signalDMSO)))
(§6) The ability of each compound to inhibit pERK signal was expressed as an IC50 value obtained by plotting the inhibition values for each data point of a dilution series and fitting the obtained curves using a log(agonist) versus response-variable slope (four parameters) function using GraphPadPrism (V7.0) or Dotmatics Screening Ultra platform.
(§7) When present, paradoxical pERK induction is inferred from the negative % inhibition values observed in the pERK IC50 curves of a compound.

[2] = tested on: pERK in SW480 cells (KRAS G12D); experiment: Phospho-ERK inhibition (AlphaLISA), SW480; conditions: for SW480 pERK % Ymin: SW480, Table D, value in parentheses; for SW480 pERK % Ymin (lowest value of the IC50 curve): SW480 cells, Ymin above −20% = minimal or no paradoxical activation
Method: as §1, §2, §3, §4, §5, §6, §7

A101D cells (BRAF V600E) = experiment: Proliferation inhibition (CellTiter-Glo), A101D; conditions: read-out: A101D Prolif. EC50, 3 days
Method: as §1
(§8) CellTiter-Glo® viability analysis was conducted on cells plated in 100 μL of complete RPMI-1640 growth medium in 96-well flat-bottomed white opaque plates (Greiner or Croning) at a density indicated in Table E (for each CCL, number of cells plated per well of a 96-well plate to perform the CellTiter-Glo® cell viability assay). The cell density in cells/cm^2 would correspond to cell number divided by the area of one well of a 96-well plate (0.32 cm^2). Cells were maintained overnight at 37° C. under 5% CO2 before treatment with compounds' dilution series for 3 days.
(§9) In a dilution series 100 μL/well of test substance dilution prepared in complete RPMI-1640 growth media was added to the cells plated initially in 100 μL of growth media. The dilution series is selected so that ten concentrations cover a range from 10 μM to 0.33 nM. If necessary (as in the case of A375 cells, which were more sensitive to the compounds) the initial concentration of 10 μM is lowered to 1 μM and further dilution is carried out accordingly. The final concentration of DMSO in the assay is set at is 0.5%.
(§10) After 3 days of incubation, the growth media were removed by aspiration and 60 μL of diluted CellTiter-Glo® reagent (10 μL CellTiter-Glo® reagent+50 μL of PBS) was added to each well. Cells were allowed to lyse and to equilibrate in CellTiter-Glo® reagent by 5 min incubation on a plate shaker followed by 10 min incubation at room temperature. Luminescence signals were then acquired on a Synergy Neo2 plate reader (Biotek).
as §5, with “proliferation of cancer cell lines” for “pERK signal”, “μM of trametinib;” for “M trametinib,”, “CellTiter-Glo® signal” for “pERK”, “The” for “First, the”, “inhibition=100*(1−((CellTiter-Glo® signalcompound)/(CellTiter-Glo®” for “inhibition=100*(1-((pERK signalcompound)/(pERK”
as §6, with “proliferation” for “pERK signal”, “a EC50” for “an IC50”, “effect” for “inhibition”

[3] = tested on: NCIH2087 cells (BRAF L597V; KRAS Q61K); experiment: Proliferation inhibition (CellTiter-Glo), NCIH2087; conditions: read-out: NCIH2087 Prolif. EC50; NCIH2087, 3 days
Method: as §1, §8, §9, §10
as §5, with “proliferation of cancer cell lines” for “pERK signal”, “μM of trametinib;” for “M trametinib,”, “CellTiter-Glo® signal” for “pERK”, “The” for “First, the”, “inhibition=100*(1−((CellTiter-Glo® signalcompound)/(CellTiter-Glo®” for “inhibition=100*(1-((pERK signalcompound)/(pERK”
as §6, with “proliferation” for “pERK signal”, “a EC50” for “an IC50”, “effect” for “inhibition”

[4] = tested on: NCIH1755 cells (BRAF G469A); experiment: Proliferation inhibition (CellTiter-Glo), NCIH1755; conditions: read-out: NCIH1755 Prolif. EC50; NCIH1755, 3 days
Method: as §1, §8, §9, §10
as §5, with “proliferation of cancer cell lines” for “pERK signal”, “μM of trametinib;” for “M trametinib,”, “CellTiter-Glo® signal” for “pERK”, “The” for “First, the”, “inhibition=100*(1−((CellTiter-Glo® signalcompound)/(CellTiter-Glo®” for “inhibition=100*(1-((pERK signalcompound)/(pERK”
as §6, with “proliferation” for “pERK signal”, “a EC50” for “an IC50”, “effect” for “inhibition”

| IC50 [1] [nM] | SW480 pERK % Ymin (lowest value of the IC50 curve) [2] [%] | SMILES | NCI-H358 pERK % Ymin [1] [%] | SW480 pERK % Ymin [2] [%] | EC50 (A101D cells (BRAF V600E)) [nM] | EC50 [3] [nM] | EC50 [4] [nM] |
| --- | --- | --- | --- | --- | --- | --- | --- |
| 30 to 300 | – | O=S(=O)(CCCN1CCOCC1)c1cn(-c2ccc3ncnc(Nc4c(F)ccc(NS(=O)(=O)c5cccc(Cl)c5Cl)c4F)c3n2)c2ccccc12 | −9 | 4 | < 30 | 300 to 3000 | 300 to 3000 |
| – | – | Cc1c(F)cccc1S(=O)(=O)Nc1ccc(F)c(Nc2ncnc3ccc(-n4nc(C(=O)N(C)Cc5cccnc5)c5ccccc54)nc23)c1F | – | – | < 30 | < 30 | 300 to 3000 |
| 30 to 300 | 2 | CS(=O)(=O)C1CCN(c2cccc3c2nnn3-c2ccc3ncnc(Nc4c(F)ccc(NS(=O)(=O)c5cccc(Cl)c5Cl)c4F)c3n2)CC1 | 4 | 2 | < 30 | 300 to 3000 | < 30 |
| 30 to 300 | – | COc1ccc(S(=O)(=O)Nc2ccc(F)c(Nc3ncnc4ccc(-n5cc(S(=O)(=O)N(C)CCN(C)C)c6ccccc65)nc34)c2F)c(C)c1F | −11 | −3 | < 30 | 300 to 3000 | < 30 |
| 30 to 300 | – | CN(CCN1CCOCC1)S(=O)(=O)c1cn(-c2ccc3ncnc(Nc4c(F)ccc(NS(=O)(=O)c5cccc(Cl)c5Cl)c4F)c3n2)c2ccccc12 | 3 | 6 | < 30 | 300 to 3000 | 300 to 3000 |
| 30 to 300 | – | Cc1c(Cl)cccc1S(=O)(=O)Nc1ccc(F)c(Nc2ncnc3ccc(-n4cnc5c(N)cccc54)nc23)c1F | 3 | 21 | < 30 | 300 to 3000 | < 30 |
| 30 to 300 | 5 | O=S(=O)(Nc1ccc(F)c(Nc2ncnc3ccc(-n4cnc5c(N6CCC7(CCCC7)CC6)cccc54)nc23)c1F)c1cccc(Cl)c1Cl | 25 | 5 | < 30 | < 30 | < 30 |
| < 30 | – | O=S(=O)(Nc1ccc(F)c(Nc2ncnc3ccc(-n4nnc5ccccc54)nc23)c1F)c1cccc(Cl)c1Cl | 23 | −3 | < 30 | – | < 30 |
| 30 to 300 | 6 | COCCOc1cccc2c1nnn2-c1ccc2ncnc(Nc3c(F)ccc(NS(=O)(=O)c4cccc(Cl)c4Cl)c3F)c2n1 | 8 | −6 | < 30 | – | < 30 |
| 30 to 300 | 2 | Cc1c(Cl)csc1S(=O)(=O)Nc1ccc(F)c(Nc2ncnc3ccc(-n4cc(S(=O)(=O)N(C)CCN(C)C)c5ccccc54)nc23)c1F | 8 | 2 | < 30 | < 30 | 300 to 3000 |
| 30 to 300 | 7 | CCC1(O)CCN(c2cccc3c2ncn3-c2ccc3ncnc(Nc4c(F)ccc(NS(=O)(=O)c5cccc(Cl)c5Cl)c4F)c3n2)CC1 | 1 | 7 | < 30 | < 30 | 300 to 3000 |
| 30 to 300 | – | Cc1c(F)cccc1S(=O)(=O)Nc1ccc(F)c(Nc2ncnc3ccc(-n4cnc5c(-c6cccnc6)cccc54)nc23)c1F | −15 | 14 | < 30 | 300 to 3000 | 300 to 3000 |
| 30 to 300 | 6 | O=S(=O)(Nc1ccc(F)c(Nc2ncnc3ccc(-n4cnc5c(N6CCC(O)(C(F)(F)F)CC6)cccc54)nc23)c1F)c1cccc(Cl)c1Cl | 0 | 6 | < 30 | < 30 | 300 to 3000 |
| 30 to 300 | – | Cc1c(Cl)cccc1S(=O)(=O)Nc1ccc(F)c(Nc2ncnc3ccc(-n4cc(C(=O)N5CCN(C)CC5)c5ccccc54)nc23)c1F | −4 | −1 | < 30 | 300 to 3000 | 300 to 3000 |
